Measurements: ChEMBL document CHEMBL1124880 (J Med Chem, 1990)

The chains behind the UniProt entries cited, without tags or fusion partners. Where a name states a change or a piece, a line headed by the entry shows the natural chain unless it says otherwise.
UniProt P29276: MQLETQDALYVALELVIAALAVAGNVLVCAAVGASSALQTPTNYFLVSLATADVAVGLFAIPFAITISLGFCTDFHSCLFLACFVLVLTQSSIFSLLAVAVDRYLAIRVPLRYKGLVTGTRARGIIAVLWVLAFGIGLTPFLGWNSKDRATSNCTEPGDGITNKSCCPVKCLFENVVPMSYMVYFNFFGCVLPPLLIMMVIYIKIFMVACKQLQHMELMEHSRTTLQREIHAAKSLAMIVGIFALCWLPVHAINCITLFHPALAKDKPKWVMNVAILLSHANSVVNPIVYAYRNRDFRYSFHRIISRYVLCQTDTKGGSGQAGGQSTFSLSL
UniProt P30543: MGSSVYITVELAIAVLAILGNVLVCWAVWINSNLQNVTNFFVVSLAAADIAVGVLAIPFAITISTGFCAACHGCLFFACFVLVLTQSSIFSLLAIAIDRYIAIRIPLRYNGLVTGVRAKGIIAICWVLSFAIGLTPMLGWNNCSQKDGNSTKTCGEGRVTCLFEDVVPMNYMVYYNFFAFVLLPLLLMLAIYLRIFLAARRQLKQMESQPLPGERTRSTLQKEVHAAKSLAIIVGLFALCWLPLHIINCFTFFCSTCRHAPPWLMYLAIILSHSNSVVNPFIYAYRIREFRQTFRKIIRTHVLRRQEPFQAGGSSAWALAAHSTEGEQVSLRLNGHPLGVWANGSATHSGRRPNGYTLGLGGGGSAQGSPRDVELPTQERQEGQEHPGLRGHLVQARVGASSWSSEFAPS
UniProt P25099, whole entry: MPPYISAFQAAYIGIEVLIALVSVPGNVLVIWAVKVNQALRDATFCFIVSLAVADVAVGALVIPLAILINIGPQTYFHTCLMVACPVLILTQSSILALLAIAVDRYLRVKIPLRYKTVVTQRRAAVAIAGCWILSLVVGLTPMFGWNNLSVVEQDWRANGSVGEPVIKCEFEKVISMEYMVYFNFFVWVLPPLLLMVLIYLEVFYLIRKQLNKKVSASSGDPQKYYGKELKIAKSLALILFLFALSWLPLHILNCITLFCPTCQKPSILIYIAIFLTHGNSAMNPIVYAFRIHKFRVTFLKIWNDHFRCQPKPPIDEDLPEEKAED

Assays:
Adenosine A2 receptor = Adenosine A2 receptor (Rattus norvegicus, UniProt P29276+P30543); experiment: Binding affinity for Adenosine A2 receptor in corpora striata of rats using [3H]NECA; assay type: protein assay
Adenosine receptor A1 = Adenosine receptor A1 (Rattus norvegicus, UniProt P25099); experiment: Binding affinity towards the adenosine A1 receptor in cerebral cortices of Sprague-Dawley male rats using [3H]CHA as radioligand.

Row | Structure (SMILES) | Ki (Adenosine A2 receptor) [nM] | IC50 (Adenosine receptor A1) [nM]
1 | C[C@H](Cc1ccccc1)Nc1ncnc2c1ncn2[C@@H]1O[C@H](CO)[C@@H](O)[C@H]1O [(R)-PIA] | 30000 | 
2 | Nc1nc2ccc(Cl)cc2c2nc(-c3ccco3)nn12 [CGS-15943] |  | 6
